In PubChem BioAssay AID2551 (National Center for Advancing Translational Sciences (NCATS), 2010):
The list shows a part of the results, in another mix than the full data. Some results for these compounds are left out of this collection, so the calls shown say nothing about other tests. Results filed as inconclusive are left out. The source made the active and inactive calls. Calls come from the whole dose curve; as a rule, active = well fitted inhibition curve with a large enough effect; inconclusive = small, poorly fitted or top-dose-only effect, or effect the other way; inactive = no such curve, though single readings can be large or run the other way.
% is set by controls: 0 for no effect and ±100 for the full control effect.
Note: nearly all actives have a fitted effect of over 60% in size.

Amino acid sequences for entries named in this document (tags omitted).
UniProt P51450, whole entry: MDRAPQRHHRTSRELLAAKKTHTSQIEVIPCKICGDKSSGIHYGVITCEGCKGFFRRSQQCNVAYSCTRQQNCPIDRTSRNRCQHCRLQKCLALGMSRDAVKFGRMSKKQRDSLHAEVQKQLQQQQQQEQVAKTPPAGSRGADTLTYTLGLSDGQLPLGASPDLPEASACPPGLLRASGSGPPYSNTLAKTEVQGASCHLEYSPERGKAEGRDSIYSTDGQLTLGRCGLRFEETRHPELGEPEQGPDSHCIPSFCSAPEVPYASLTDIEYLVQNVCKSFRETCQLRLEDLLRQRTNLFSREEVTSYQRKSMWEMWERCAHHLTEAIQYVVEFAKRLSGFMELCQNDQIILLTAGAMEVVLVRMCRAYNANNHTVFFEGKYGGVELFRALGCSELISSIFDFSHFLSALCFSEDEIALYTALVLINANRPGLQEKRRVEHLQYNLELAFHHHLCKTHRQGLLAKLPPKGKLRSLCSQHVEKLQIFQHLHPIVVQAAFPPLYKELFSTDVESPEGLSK

What follows are molecules tested against Nuclear receptor ROR-gamma (Mus musculus) (UniProt P51450) (assay: qHTS for inhibitors of ROR gamma transcriptional activity). Conditions: Drosophila S2 Gal4-RORgamma UAS-luciferase reporter, 20 h; at 53.6 µM (top of the series).
With CN1CCCC(OC(=O)C(O)(c2ccccc2)c2ccccc2)C1 (centres undefined) the activity change, negative = inhibition was inactive: 6.9%. In the case of Cc1ccccc1C(=O)NCC1(N2CCCCC2)CCCCC1, the activity change, negative = inhibition was inactive: -1.87%. With CN(C)C1CCCC1OC(=O)C(O)(c1ccccc1)c1ccccc1 (centres undefined) the activity change, negative = inhibition was inactive: -27.3%. In the case of CN(C)c1ccc(C(=O)NCC2(N(C)C)CCCCC2)cc1, the activity change, negative = inhibition was inactive: -2.41%. With Cc1cc(C(=O)NCC2(N3CCCCC3)CCCCC2)ccc1[N+](=O)[O-] the activity change, negative = inhibition was inactive: 0.0494%. For CCN1CCCC(OC(=O)C2(O)c3ccccc3C=Cc3ccccc32)C1 (centres undefined), the activity change, negative = inhibition was inactive: 14.4%. For COc1ccc(C(=O)NCC2(N(C)C)CCCCC2)cc1, the activity change, negative = inhibition was inactive: -3.06%. For C=CCN1CCN(CCOC(=O)C(O)(c2ccccc2)c2ccccc2)CC1, the activity change, negative = inhibition was inactive: 6.97%. In the case of O=C(NCC1(N2CCCCC2)CCCCC1)c1cc(F)c(F)cc1Cl, the activity change, negative = inhibition was inactive: 13.9%. For CN1[C@@H]2CC[C@H]1CC(OC(=O)C(O)(c1ccccc1)c1ccccc1)C2 (some centres undefined), the activity change, negative = inhibition was inactive: 26.1%. For O=C(NCC1(N2CCCCC2)CCCCC1)c1cc([N+](=O)[O-])ccc1Cl, the activity change, negative = inhibition was inactive: 0.989%. In the case of Cc1ccc(C(=O)NCC2(N3CCCCC3)CCCCC2)cc1, the activity change, negative = inhibition was inactive: -0.0843%. CC(C)N1C(=O)CC2(CCN(CCOC(=O)C(O)(c3ccccc3)c3ccccc3)CC2)C1=O was tested, and the activity change, negative = inhibition was inactive: 20.5%. With CCN(CC)CC(C)C(C)OC(=O)C(O)(c1ccccc1)c1ccccc1 (centres undefined) the activity change, negative = inhibition was inactive: 0.431%. In the case of COc1cc(SC)ccc1C(=O)NCC1(N(C)C)CCCCC1, the activity change, negative = inhibition was inactive: -0.51%. For O=C(OC1CN2CCC1CC2)C(CO)(c1ccccc1)c1ccccc1 (centres undefined), the activity change, negative = inhibition was inactive: -2.64%. With CN(C)c1cccc(C(=O)NCC2(N(C)C)CCCCC2)c1 the activity change, negative = inhibition was inactive: 36.7%. For CC(C)Oc1ccc(C(=O)NCC2(N(C)C)CCCCC2)cc1, the activity change, negative = inhibition was inactive: -16.8%. With COc1ccc(Br)c(C(=O)NCC2(N3CCCCC3)CCCCC2)c1 the activity change, negative = inhibition was inactive: -5.1%. In the case of COc1cc(C(=O)NCC2(N(C)C)CCCCC2)c([N+](=O)[O-])cc1OC, the activity change, negative = inhibition was inactive: 18.1%. In the case of CN(C)C1(CNC(=O)c2ccc(Br)cc2)CCCCC1, the activity change, negative = inhibition was inactive: -6.22%. With O=C(NCC1(N2CCCCC2)CCCCC1)c1cccc(Cl)c1 the activity change, negative = inhibition was inactive: 2.31%. With COc1cccc(C(=O)NCC2(N3CCCCC3)CCCCC2)c1 the activity change, negative = inhibition was inactive: -11.3%. With COc1ccc(Cl)cc1C(=O)NCC1(N(C)C)CCCCC1 the activity change, negative = inhibition was inactive: -0.608%.
